Data as given in PubChem BioAssay AID1457 (National Center for Advancing Translational Sciences (NCATS), 2008).
Several values for one entry are separate records, joined by “and”; a condition that tells them apart may be missing. Identical values can stand only once. Only a part is listed here, and it is no random draw. Activity calls are given as the source filed them. The call rests on the fitted dose curve; in most records, active means well fitted inhibition curve with a large enough effect; inconclusive means small, poorly fitted or top-dose-only effect; inactive means no such curve, though single readings can be large or run the other way.

experiment: qHTS Assay for Identifying the Cell-Membrane Permeable IMPase Inhibitors: Potentiation with Lithium; details: CHO-M1 cells, IP1 TR-FRET (IP-One), carbachol + lithium; at 59.4 µM (top of the series) unless noted;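 further: IP1 builds up when IMPase is blocked and the TR-FRET signal falls; plate controls were basal vehicle for no effect and high inhibitor control for full effect; nearly all actives have a fitted effect of over 50% in size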

Row | Compound | activity, negative = IMPase inhibition
1 | O=P1(Nc2ccccn2)COc2ccccc2OC1 | inactive: 17.1% [at 38.3 µM]
2 | CN(CCCl)Cc1cc(Cl)c(NC2=NCCN2)c(Cl)c1 | inactive: 22.8% and inactive: 14.6%
3 | CC(C)/C=N\N=C(\N)N[N+](=O)[O-] | inactive: -3.64%
4 | CC1CCC(C(C)C)C(OP(=O)(Nc2ccccn2)c2ccccc2)C1 (stereo not given) | inactive: 17.6%
5 | Cc1nn(-c2ccccc2)c2c1P(=O)(N1CCOCC1)N(C)C(c1ccccc1)=N2 (stereo not given) | inactive: -4.09% [at 38.3 µM]
6 | CN(C)C1(CNC(=O)c2ccc(S(C)(=O)=O)cc2)CCCCC1 | inactive: -4.32%
7 | O=P1(Nc2ncccn2)COc2ccccc2OC1 | inactive: 21.2% [at 38.3 µM]
8 | Cc1ccc(OCC(=O)OC2CN3CCC2CC3)cc1 (stereo not given) | inactive: 25.1% [at 38.3 µM]
9 | O=P1(Nc2ccc(Br)cn2)COc2ccccc2OC1 | inactive: 5.36% [at 38.3 µM]
10 | O=P(Nc1nccs1)(Oc1ccccc1)Oc1ccccc1 | inactive: -3.05%
11 | O=P(Nc1nccs1)(c1ccccc1)c1nc2ccccc2s1 (stereo not given) | inactive: 39% [at 38.3 µM]
12 | CCOP1(=S)c2c(C)nn(CCC#N)c2N=C(c2ccccc2F)N1C (stereo not given) | inactive: 19.8% [at 38.3 µM]
13 | O=[As](O)(O)c1ccc([As](=O)(O)O)cc1 | inactive: -1.79%
14 | O=[N+]([O-])CC(O)c1ccc([N+](=O)[O-])cc1 (stereo not given) | inactive: 48.5%
15 | NC(=O)Nc1ccc([As](=O)(O)O)cc1 | inactive: 7.27% and inactive: -7.98%
16 | CN(C(=O)Cc1ccccc1)[C@@H]1CC[C@]2(CCCO2)C[C@H]1N1CCCC1 | inactive: 10.8%
17 | CCOP1(=S)c2c(C)nn(CCC#N)c2N=C(c2ccc(F)cc2)N1C (stereo not given) | inactive: 3.28% [at 38.3 µM]
18 | O=[N+]([O-])c1ccc2c(c1)nnn2O | inactive: 14.7% [at 38.3 µM]
19 | CN(C(=O)Cc1ccc(Cl)c(Cl)c1)[C@@H]1CC[C@]2(CCCO2)C[C@H]1N1CCCC1 | inactive: -7.03% and inactive: 11.2%
20 | COc1cc(C(=O)NCC2(N3CCOCC3)CCCCC2)cc(Cl)c1OC(C)C | inactive: 8.66%

Row | Compound | activity, negative = IMPase inhibition
21 | Cc1cccc(OCC(=O)OC2CN3CCC2CC3)c1 (stereo not given) | inactive: 5.1% [at 38.3 µM]
22 | NS(=O)(=O)Cc1ccc([As](=O)(O)O)cc1 | inactive: 9.42%
23 | Cc1ccc(NCCc2c([N+](=O)[O-])cc([N+](=O)[O-])cc2[N+](=O)[O-])cc1 | inactive: 9.4%
24 | O=C(CC(=O)c1ccccc1)O[C@H]1CN2CCC1CC2 | inactive: 22%
25 | CCOP(=O)(Nc1cccc2ccccc12)OCC | inactive: -8.41%
26 | COc1cc(C2NCCC3(OCCO3)C2(C)C)cc(OC)c1OC (stereo not given) | inactive: 3.3%
27 | Cc1c2c(nc3ccccc13)SC(C(Cl)Cl)C2 (stereo not given) | inactive: 9.91%
28 | Cc1cc(=O)[nH]c(N[N+](=O)[O-])n1 | inactive: -0.706%
29 | O=C(OC1CN2CCC1CC2)C12CC3CC(CC(C3)C1)C2 (stereo not given) | inactive: 29.7% [at 38.3 µM]
30 | COc1ccc2nc(NP(=O)(c3ccccc3)c3ccccc3)sc2c1 | inactive: 8.38%
31 | NC(=O)Nc1cc([As](=O)(O)O)cc(I)c1O | inactive: 7.98%
32 | COc1ccc(N/C(=N/P(=O)(N2CCOCC2)N2CCOCC2)N2CCOCC2)cc1 | inactive: -25.1%
33 | Cc1ccc2nc3c(c(C)c2c1)CC(C(Cl)Cl)S3 (stereo not given) | inactive: -0.48%
34 | ClCCSc1nnc(-c2cccnc2)o1 | inactive: 3.95%
35 | O=[As]c1ccc(S(=O)(=O)NCCO)cc1 (stereo not given) | inactive: 8.17%
36 | [N-]=[N+]=NCC(N)=O | inactive: -2.49%
37 | O=[N+]([O-])c1cc([N+](=O)[O-])c(-c2ccn[nH]2)s1 | inactive: -3.42%
38 | CC(C)NC(=O)NP(=O)(Oc1ccccc1)Oc1ccccc1 | inactive: 1.28%
39 | CCN(CC)C(=S)SC(NC=O)C(Cl)(Cl)Cl (stereo not given) | inactive: 1.9% [at 38.3 µM]
40 | Cc1cc(SC(NC(=O)c2ccccc2)C(Cl)(Cl)Cl)nc(C(C)C)n1 (stereo not given) | inactive: 10.7%

Row | Compound | activity, negative = IMPase inhibition
41 | CN(N=O)C(=N)N[N+](=O)[O-] | inactive: -0.17%
42 | Cc1cc(SC(NC=O)C(Cl)(Cl)Cl)ncn1 (stereo not given) | inactive: -4.09%
43 | O=P(Nc1ccccn1)(c1cccc2ccccc12)c1cccc2ccccc12 | inactive: 21.3%
44 | COP1(=S)c2c(C)nn(CCC#N)c2N=C(c2ccc(F)cc2)N1C (stereo not given) | inactive: 15.3% [at 38.3 µM]
45 | O=C(COc1ccccc1)OC1CN2CCC1CC2 (stereo not given) | inactive: 11.6%
46 | O=C(O)[C@@H](O)c1ccc([As](=O)(O)O)cc1 | inactive: 0.825%
47 | CCC(C)N(CC(C)C)C(=S)SC(NC(C)=O)C(Cl)(Cl)Cl (stereo not given) | inactive: 13.1%
48 | COc1ccc(C2=NCC(CBr)S2)cc1 (stereo not given) | inactive: 16.5%
49 | O=[N+]([O-])c1cc([N+](=O)[O-])c(CCNc2ccccc2)c([N+](=O)[O-])c1 | inactive: -1.7%
50 | Cc1ccc(NP(=O)(Oc2ccccc2)Oc2ccccc2)nc1 | inactive: 10.7%
51 | CC(=O)N1C2C3N(C(C)=O)C1C1N(C(C)=O)C(C(N1C(C)=O)N3C(C)=O)N2C(C)=O | inactive: -3.11% [at 38.3 µM]
52 | O=[N+]([O-])c1cccc2n[nH]nc12 | inactive: 15.8% [at 38.3 µM]
53 | CCN(/C(=N/P(=O)(N1CCOCC1)N1CCOCC1)N1CCOCC1)c1ccc(OC)cc1 | inactive: 0.887%
54 | CC(=O)C1=CCCC2CCC1N2 (stereo not given) | inactive: 9.41% and inactive: -4.52%
55 | CC1CCN(C(=O)Oc2c(Cl)cc(Cl)c3cccnc23)CC1 | inactive: -14.8% [at 38.3 µM]
56 | O=C(CO)Nc1ccc([As](=O)(O)O)cc1 | inactive: 1.33%
57 | CN(C)C(=O)OCCc1n(C)cc[n+]1C | inactive: -0.189%
58 | CC(C)=N/N=C(\N)N[N+](=O)[O-] | inactive: -5.47%
59 | O=[N+]([O-])c1ncn(CCn2ncnc2[N+](=O)[O-])n1 | inactive: 2.94%
60 | Cc1cc(SC(NC(=O)c2ccc(F)cc2)C(Cl)(Cl)Cl)ncn1 (stereo not given) | inactive: -7.71%
